These results are taken from ChEMBL document CHEMBL3425442, “Tetrahydroindazoles as Interleukin-2 Inducible T-Cell Kinase Inhibitors. Part II. Second-Generation Analogues with Enhanced Potency, Selectivity, and Pharmacodynamic Modulation in Vivo” (J Med Chem, 2015).

The species named for the experiment is Homo sapiens. Description: Selectivity ratio of Ki for LCK (unknown origin) to Ki for GST-tagged recombinant full length human ITK.

As for `CC1(C)CCc2c(C(=O)Nc3cnn(Cc4ccccc4)c3)n[nH]c2C1`, the Ratio Ki is 340.
